The test system of the assay is HepG2 cells. Briefly: Hepatoprotective effects in vitro against TBH oxidative damage. Conditions: MTT, TBH challenge.

Here are results for one molecule from patent US8080264B2, “Natural composition for curing hepatitis-B, methods for making the same and pharmaceutical formulations thereof” (Himalaya Global Holdings Ltd., priority 2004, dated 2011).

`CC(C)(C)OO` [TBH, Tertiary Butyl Hydro peroxide]: the “Toxicity (%)” value is recorded as 47.47%.
